# Ab-14 heavy chain CDR variants: yeast mating affinities

The measurements come from Engelhart et al. 2022 (doi:10.1038/s41597-022-01779-4) through the FLAb antibody collection.

Antigen: PDVDLGDISGINAS, a 14-residue peptide of the SARS-CoV-2 spike HR2 region.

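The parent was found by panning a naive human phage display library on the peptide. The library (AAYL49) carries one to three amino acid substitutions per variant, with no insertions or deletions. In AlphaSeq, yeast of one mating type display the scFv and yeast of the other type display the target. Mating (16 h, 30 °C) was followed by selection of diploids and sequencing of their barcodes. A regression on co-assayed BCL2-family reference pairs converts the normalised counts of each replicate to an apparent Kd. Each pool was mated in three replicate cultures.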

The variants keep the light chain, the linker and the frameworks of Ab-14 (scFv order VH, three GGGGS repeats, VL).
VH: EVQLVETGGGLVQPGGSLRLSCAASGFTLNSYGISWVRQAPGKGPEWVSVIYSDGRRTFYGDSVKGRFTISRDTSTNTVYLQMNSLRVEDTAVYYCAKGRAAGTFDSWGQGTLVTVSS
VL: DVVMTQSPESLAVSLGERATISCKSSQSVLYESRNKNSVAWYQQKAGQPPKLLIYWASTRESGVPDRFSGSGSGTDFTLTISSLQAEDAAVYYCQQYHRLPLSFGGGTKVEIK

Positions count from residue 1 of the parent VH; I51C puts C in place of I.
Numbers give log10(Kd / nM), so 0 is 1 nM and 3 is 1 µM. Smaller is tighter.
Where no diploid with the target was found in that replicate, the entry reads "nd": below detection, most likely a poor binder, though not proof of it.
Parent in this assay: reference entry 0.65, copy in this library 4.11 (one replicate of three).
As a blank, each scFv also met three strains without target: over library AAYL49, 15% of these pairings were detected, typically at 4.06 and seldom below 2.83. The control count says in how many pairings with the empty strains this scFv gave a signal, with their mean in brackets.

changes,"replicates, log10 nM",signal with controls
I51C+A101M+S107H,nd / nd / 3.42,1 of 9 (5.25)
I34L+V50T+G55H,nd / 3.96 / nd,2 of 9 (3.48)
I34Y+G55C+D106V,nd / nd / nd,0 of 9
I34L+K65H+F105Q,nd / 4.25 / 6.20,4 of 9 (3.86)
T28I+S53T+D106R,5.40 / nd / nd,0 of 9
S35Y+R100G+D106R,nd / 3.64 / 3.13,2 of 9 (3.63)
N30V+Y52E+R57P,nd / nd / nd,0 of 9
N30Y+G33T+F59C,nd / nd / nd,0 of 9
Y32C+Y60F+S107A,nd / 3.09 / 4.21,2 of 9 (4.05)
L29V+Y32L+D106M,4.95 / nd / nd,1 of 9 (4.25)
S35R+S53W+F105T,5.08 / nd / nd,2 of 9 (4.14)
S35M+R57F+V64L,nd / nd / nd,1 of 9 (3.35)
F27I+S31W+D106C,4.69 / nd / 3.16,0 of 9
S35I,nd / nd / nd,2 of 9 (2.45)
S31L+D54E+D106P,nd / nd / nd,2 of 9 (4.17)
F27C+G33A+R57I,3.99 / 3.06 / nd,2 of 9 (4.63)
Y52L+K65T+R100V,nd / nd / nd,0 of 9
G26V+S53M,nd / nd / nd,4 of 9 (3.95)
G55V+R56K+S107M,nd / 3.67 / nd,3 of 9 (3.99)
F27V+R56A+Y60I,6.26 / 4.65 / 3.97,2 of 9 (3.77)
G26T+I34W+I51P,2.78 / 3.60 / nd,3 of 9 (3.75)
A101Y+A102Q+D106E,nd / nd / nd,3 of 9 (4.30)
F27A+S31I+K65V,6.10 / 5.28 / 3.81,3 of 9 (4.30)
I51L+A102E,nd / nd / nd,3 of 9 (3.70)
D54N+R56W+G61H,nd / nd / nd,0 of 9
N30D+A102H+F105S,nd / nd / nd,0 of 9
G26Q+T28G+G61A,1.80 / 2.11 / 3.03,1 of 9 (4.84)
V50G+G55F+T104Q,nd / 3.34 / nd,0 of 9
Y32K+I34D,nd / 5.09 / nd,0 of 9
R56M+S63Y+T104M,nd / nd / nd,0 of 9
S31N+G61L+R100F,1.65 / 1.48 / 1.78,4 of 9 (4.94)
T28I+G33M+Y60V,nd / nd / nd,0 of 9
S31L+R57W+Y60A,nd / nd / nd,1 of 9 (3.62)
F27I+S31I+G55T,nd / nd / 3.82,5 of 9 (3.94)
Y60Q+V64D+T104Y,nd / 4.04 / 5.00,2 of 9 (4.52)
T28I+R100L,1.56 / 2.08 / 1.90,3 of 9 (3.79)
R57F+S63N+S107C,3.59 / nd / nd,0 of 9
L29K+S53I+R57I,nd / nd / 5.97,3 of 9 (3.90)
Y32T+D62F+T104R,nd / nd / nd,1 of 9 (2.40)
L29F+A101W+D106E,2.08 / 2.04 / 2.22,0 of 9
I51G+A102V+G103F,nd / 4.21 / nd,0 of 9
Y52I+D54T+V64S,nd / nd / nd,1 of 9 (3.55)
Y60V+K65F+F105N,nd / nd / nd,2 of 9 (3.73)
Y32G+I51T+T58K,5.58 / nd / nd,1 of 9 (4.28)
T28V+S35I+Y52I,nd / 3.38 / nd,3 of 9 (3.29)